Paper PMC7902086 (Toxicology letters, 2019)

Amino acid sequences for entries named in this document (tags omitted).
UniProt P33261, whole entry: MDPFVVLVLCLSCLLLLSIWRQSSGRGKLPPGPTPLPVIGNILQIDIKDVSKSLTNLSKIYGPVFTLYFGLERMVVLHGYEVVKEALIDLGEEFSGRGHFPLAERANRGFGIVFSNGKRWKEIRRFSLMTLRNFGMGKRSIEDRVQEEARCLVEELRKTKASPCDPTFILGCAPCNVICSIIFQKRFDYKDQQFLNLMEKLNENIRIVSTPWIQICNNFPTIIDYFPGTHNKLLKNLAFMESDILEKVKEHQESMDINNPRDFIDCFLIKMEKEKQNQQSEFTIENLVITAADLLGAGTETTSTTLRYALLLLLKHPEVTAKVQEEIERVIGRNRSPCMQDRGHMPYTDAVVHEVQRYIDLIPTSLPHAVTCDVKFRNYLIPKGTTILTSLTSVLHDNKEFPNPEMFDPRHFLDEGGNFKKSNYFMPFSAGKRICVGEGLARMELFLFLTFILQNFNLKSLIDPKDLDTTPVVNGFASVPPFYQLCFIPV
UniProt P10635, whole entry: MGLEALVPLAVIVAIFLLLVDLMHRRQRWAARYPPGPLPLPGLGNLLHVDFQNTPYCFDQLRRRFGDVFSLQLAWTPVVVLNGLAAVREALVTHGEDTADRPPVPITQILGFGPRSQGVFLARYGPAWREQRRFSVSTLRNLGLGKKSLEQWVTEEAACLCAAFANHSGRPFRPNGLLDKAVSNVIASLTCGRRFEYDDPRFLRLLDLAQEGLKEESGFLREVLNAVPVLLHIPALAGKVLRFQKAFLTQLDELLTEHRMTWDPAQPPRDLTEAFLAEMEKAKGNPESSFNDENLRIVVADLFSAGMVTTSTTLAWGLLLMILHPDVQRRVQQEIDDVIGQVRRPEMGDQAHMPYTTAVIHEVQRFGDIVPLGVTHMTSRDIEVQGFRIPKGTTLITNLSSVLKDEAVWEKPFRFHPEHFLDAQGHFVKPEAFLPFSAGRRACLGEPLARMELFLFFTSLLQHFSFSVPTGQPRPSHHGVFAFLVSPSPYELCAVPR

Columns and labels:
[1] = molecular target: CYP2C19 (Homo sapiens, UniProt P33261); experiment: CYP450 inhibition assay, S-mephenytoin 4′-hydroxylase in human liver microsomes; conditions: read-out: IC50, CYP2C19 S-Mephenytoin 4′-hydroxylase; human liver microsomes 0.1 mg/mL; mean of triplicate
[2] = test system: CYP3A4/5; experiment: CYP450 inhibition assay, midazolam 1′-hydroxylase in human liver microsomes; conditions: read-out: IC50, CYP3A4/5 Midazolam 1′-hydroxylase; human liver microsomes 0.1 mg/mL; mean of triplicate
[3] = test system: CYP3A4/5; experiment: CYP450 inhibition assay, testosterone 6β-hydroxylase in human liver microsomes; conditions: read-out: IC50, CYP3A4/5 Testosterone 6β-hydroxylase; human liver microsomes 0.1 mg/mL; mean of triplicate
[4] = molecular target: T1, CYP2D6 (Homo sapiens, UniProt P10635); experiment: Prediction of drug-drug interaction
[5] = molecular target: T1, CYP2D6; experiment: Determination of enzyme inhibition constant; type: in vitro ADME; conditions: HLM, dextromethorphan; best fit by AIC, Eadie-Hofstee plot
[6] = MTG High (12.05 μM), Desipramine
[7] = MTG High (12.05 μM), Dextromethorphan
[8] = MTG High (12.05 μM), Metoprolol
[9] = MTG Low (0.041 μM), Desipramine
[10] = MTG Low (0.041 μM), Dextromethorphan

Substance	IC50 [1] [µM]	IC50 [2] [µM]	IC50 [3] [µM]	Fold increase in exposure (AUCinhibited/AUCcontrol), Cmax total [4, 6]	Fold increase in exposure (AUCinhibited/AUCcontrol), fu x Cmax [4, 6]	Fold increase in exposure (AUCinhibited/AUCcontrol), Cmax total [4, 7]	Fold increase in exposure (AUCinhibited/AUCcontrol), fu x Cmax [4, 7]	Fold increase in exposure (AUCinhibited/AUCcontrol), Cmax total [4, 8]	Fold increase in exposure (AUCinhibited/AUCcontrol), fu x Cmax [4, 8]	Fold increase in exposure (AUCinhibited/AUCcontrol), Cmax total [4, 9]	Fold increase in exposure (AUCinhibited/AUCcontrol), fu x Cmax [4, 9]	Fold increase in exposure (AUCinhibited/AUCcontrol), Cmax total [4, 10]	Fold increase in exposure (AUCinhibited/AUCcontrol), fu x Cmax [4, 10]	Fold increase in exposure (AUCinhibited/AUCcontrol), Cmax total ([4]; MTG Low (0.041 μM), Metoprolol)	Fold increase in exposure (AUCinhibited/AUCcontrol), fu x Cmax ([4]; MTG Low (0.041 μM), Metoprolol)	type of inhibition of CYP2D6 activity [5]
mitragynine [MTG]	10.5	11.4	> 45	5.70	1.19	11.95	1.22	3.75	1.17	1.03	1.00	1.04	1.00	1.03	1.00	competitive type of reversible inhibition
corynantheidine	> 45	7.3	> 45													competitive type of reversible inhibition
